Experimental data from patent US20250129103A1, “METHODS FOR TREATMENT OF CANCER” (Frontier Medicines Corporation, priority 2022, published 2025).

Assay: Determination of kinetic solubility (pH 7.4)
Type: physicochemical
Details: 50 mM phosphate buffer pH 7.4

## 2-((S)-4-(7-(8-chloro-7-fluoronaphthalen-1-yl)-8-fluoro-2-(((2R,7aS)-2-fluorotetrahydro-1H-pyrrolizin-7a(5H)-yl)methoxy)pyrido[4,3-d]pyrimidin-4-yl)-1-((E)-4-((3aR,6aS)-tetrahydro-1H-furo[3,4-c]pyrrol-5(3H)-yl)but-2-enoyl)piperazin-2-yl)acetonitrile [Example 84]
  Ksol, pH 7.4 (ug/mL): 81.53 ug/mL
